Apparent affinities of Ab-95 variants for a coronavirus HR2 peptide

Antigen: PDVDLGDISGINAS, a 14-residue peptide of the SARS-CoV-2 spike HR2 region.

Parent: Ab-95, a human scFv built as VH, the linker GGGGSGGGGSGGGGS, VL. Only the CDRs of the light chain vary.
VH: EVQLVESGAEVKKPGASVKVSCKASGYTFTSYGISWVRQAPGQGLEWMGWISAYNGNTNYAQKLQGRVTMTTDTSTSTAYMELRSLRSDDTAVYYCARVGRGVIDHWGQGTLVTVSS
VL: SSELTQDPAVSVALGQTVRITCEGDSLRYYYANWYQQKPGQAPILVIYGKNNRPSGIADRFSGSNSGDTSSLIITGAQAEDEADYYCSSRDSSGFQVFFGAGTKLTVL

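The starting antibody came from a phage panning campaign against this peptide. Library AAYL52 holds single substitutions and randomly drawn double and triple substitutions in the CDRs. Affinity was read by AlphaSeq, a pooled yeast mating assay with surface-displayed partners. The frequency of each diploid, read from paired DNA barcodes, reflects how well the two displayed proteins bind. Each replicate has its own calibration line, from reference interactions of the BCL2 family. There are three technical replicates.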

Changes read parent residue, position, new residue, counted from the first residue of the VL shown.
The read-out is the apparent dissociation constant on a log10 scale (nM): the lower, the stronger.
A mean of the replicates is given; it leaves out those without a signal.
An entry "nd" has no value in the source: the pair was not observed among the diploids in that replicate. This suggests poor binding but is not conclusive.
Empty control strains, which show no peptide, gave a signal in 28% of pairings with library AAYL52; the median was 3.91 and 95% of these signals were weaker than 2.90. No background was subtracted. The control count says in how many pairings with the empty strains this scFv gave a signal, with their mean in brackets.

| # | changes | log10 Kd (nM) by replicate | mean, log10 nM | control signals |
|---|---|---|---|---|
| 1 | S26A+A32H+F98I | 3.74 / 4.60 / nd | 4.17 | 5/9 (3.67) |
| 2 | D25V+G49W+G94M | 2.93 / 3.78 / nd | 3.36 | 1/9 (4.70) |
| 3 | Q96I+V97P | 3.24 / 2.89 / 2.80 | 2.97 | 1/9 (3.12) |
| 4 | A32G+Q96Y | nd / 5.28 / 3.30 | 4.29 | 4/9 (3.66) |
| 5 | S26L+Q96T | 4.85 / nd / nd | 4.85 | 1/9 (4.14) |
| 6 | G24D+N33F+F98L | 3.21 / 3.45 / nd | 3.33 | 1/9 (5.47) |
| 7 | S26R+Y29M+S93C | 5.72 / 4.07 / 2.96 | 4.25 | 3/9 (4.20) |
| 8 | R53I+S55Q | nd / 2.70 / 2.09 | 2.40 | 2/9 (4.15) |
| 9 | D25H+Y29S+G49E | 2.90 / 3.03 / 3.25 | 3.06 | 4/9 (4.33) |
| 10 | D25T+L27V+R90Y | 4.12 / 5.54 / nd | 4.83 | 6/9 (3.38) |
| 11 | Y30P+R53V+Q96F | 4.20 / 3.17 / 4.30 | 3.89 | 3/9 (3.27) |
| 12 | S55L+R90H+G94N | 2.80 / 3.17 / 3.88 | 3.28 | 5/9 (3.99) |
| 13 | Y29S+P54G+S88G | 2.96 / 2.44 / 2.25 | 2.55 | 0/9 |
| 14 | S89A+G94Y+F98N | 3.58 / 3.00 / 2.92 | 3.17 | 2/9 (3.29) |
| 15 | E23K+D25A+R28L | 2.05 / 2.03 / 1.74 | 1.94 | 3/9 (3.61) |
| 16 | N33W+G49T+R53A | nd / 3.94 / nd | 3.94 | 1/9 (5.12) |
| 17 | D25E+R28S+P54K | 2.94 / 3.07 / 2.79 | 2.93 | 3/9 (3.63) |
| 18 | R28E+N52G+F95D | nd / nd / nd | nd | 1/9 (4.52) |
| 19 | N33W+N52Y+S93Q | 4.64 / nd / nd | 4.64 | 0/9 |
| 20 | G24Y+S89H+D91G | nd / nd / nd | nd | 5/9 (3.79) |
| 21 | D25C+S89D+S92L | 3.67 / 3.33 / 3.35 | 3.45 | 2/9 (4.46) |
| 22 | L27F+Y31N+V97Q | nd / nd / 4.22 | 4.22 | 1/9 (4.09) |
| 23 | Y31S | 1.30 / 1.14 / 0.74 | 1.06 | 1/9 (4.56) |
| 24 | D25N+N33P+R53M | 3.25 / 5.63 / nd | 4.44 | 3/9 (3.08) |
| 25 | S92H+V97K+F98L | 4.53 / 4.31 / nd | 4.42 | 3/9 (3.42) |
| 26 | N33V+G94A+V97G | nd / nd / nd | nd | 2/9 (3.66) |
| 27 | L27F+A32G+V97Q | nd / nd / nd | nd | 1/9 (4.37) |
| 28 | A32N+S55T+F98Y | 3.50 / 2.87 / 2.91 | 3.09 | 1/9 (4.45) |
| 29 | S26T+L27E+S93I | 3.39 / nd / nd | 3.39 | 1/9 (3.97) |
| 30 | R28N+R53L+S55E | 2.77 / 2.37 / 2.23 | 2.46 | 1/9 (4.52) |
| 31 | D25C+S92T+V97A | 5.29 / 4.58 / 3.81 | 4.56 | 5/9 (3.76) |
| 32 | N33E | 2.78 / 2.50 / 2.71 | 2.66 | 4/9 (4.37) |
| 33 | A32L+N33G+R90C | 3.67 / nd / nd | 3.67 | 2/9 (3.77) |
| 34 | G49V+S55G+D91E | nd / 3.98 / nd | 3.98 | 3/9 (4.24) |
| 35 | K50W+N52S+R90E | 3.81 / nd / nd | 3.81 | 4/9 (4.32) |
| 36 | A32C+N51P+F95C | 4.73 / 4.90 / 3.95 | 4.53 | 5/9 (4.44) |

A selection of 4 entries from above:

| changes | log10 Kd (nM) by replicate | mean, log10 nM | control signals |
|---|---|---|---|
| L27F+A32G+V97Q | nd / nd / nd | nd | 1/9 (4.37) |
| D25T+L27V+R90Y | 4.12 / 5.54 / nd | 4.83 | 6/9 (3.38) |
| S26T+L27E+S93I | 3.39 / nd / nd | 3.39 | 1/9 (3.97) |
| S26L+Q96T | 4.85 / nd / nd | 4.85 | 1/9 (4.14) |

Source: Engelhart et al. 2022 (doi:10.1038/s41597-022-01779-4), MIT Lincoln Laboratory and A-Alpha Bio; data file from the FLAb repository.